# In patent US11220482B2, “Aminopyridinemethanol compounds and their use” (UNIVERSITE AMIENS PICARDIE JULES VERNE, priority 2017, dated 2022):
# Tested on: S. typhimurium TA98
# Assay: Bacterial reverse mutation assay (Ames test)
# Settings: without S9 mix, positive control
substance,measurement,value
"2,4,7-trinitrofluorenone","Number of revertants by plate (Means ± SD), TA98",525 ···
